# Key:
# Amino acid sequences for entries named in this document (tags omitted).
# UniProt P14600, whole entry: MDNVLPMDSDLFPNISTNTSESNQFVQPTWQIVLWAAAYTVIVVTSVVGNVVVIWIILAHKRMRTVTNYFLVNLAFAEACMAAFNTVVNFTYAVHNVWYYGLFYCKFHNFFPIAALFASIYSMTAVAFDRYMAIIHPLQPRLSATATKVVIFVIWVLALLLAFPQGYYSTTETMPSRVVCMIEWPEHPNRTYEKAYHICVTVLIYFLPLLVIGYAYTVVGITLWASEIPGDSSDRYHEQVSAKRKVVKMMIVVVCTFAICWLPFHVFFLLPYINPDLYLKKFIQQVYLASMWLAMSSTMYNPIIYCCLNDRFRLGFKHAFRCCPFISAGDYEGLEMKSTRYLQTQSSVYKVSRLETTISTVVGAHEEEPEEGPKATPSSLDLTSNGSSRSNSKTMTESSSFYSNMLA
# UniProt P33535, whole entry: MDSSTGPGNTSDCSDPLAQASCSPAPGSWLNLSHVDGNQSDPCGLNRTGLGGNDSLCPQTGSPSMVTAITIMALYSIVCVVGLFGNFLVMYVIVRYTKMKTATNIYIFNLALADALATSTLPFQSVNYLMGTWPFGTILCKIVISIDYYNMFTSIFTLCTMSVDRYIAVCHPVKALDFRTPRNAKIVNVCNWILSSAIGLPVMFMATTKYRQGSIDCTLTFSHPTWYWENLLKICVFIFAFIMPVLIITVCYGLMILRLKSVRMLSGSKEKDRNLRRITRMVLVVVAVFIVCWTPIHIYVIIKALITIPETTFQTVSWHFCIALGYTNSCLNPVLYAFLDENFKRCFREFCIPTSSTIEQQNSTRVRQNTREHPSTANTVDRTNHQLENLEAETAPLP
# [1] = biological target: T1, NK1 receptor (Rattus norvegicus, UniProt P14600); assay: SP (NK1) receptor binding assay, [125I]BH-SP competition, crude rat brain plasma membranes
# T1 construct: The same procedure was followed for the SP receptor except the wash with NaCl was eliminated; from tissue; host or cells: rat brain (crude plasma membranes)
# [2] = biological target: T2, μ receptor (Rattus norvegicus, UniProt P33535); assay: μ receptor binding assay, [3H]DAMGO competition, crude rat brain plasma membranes; details: rat brain homogenate, 1.85 nM [3H]DAMGO, 4° C., 90 minutes; FIG. 3
# T2 construct: frozen rat brains (−80° C.) were homogenized in 40 volumes of standard Tris buffer; from tissue; host or cells: rat brain (crude plasma membranes)
Compound,Kd [1],Kd [2]
CSCC[C@H](NC(=O)[C@H](CC(C)C)NC(=O)CNC(=O)[C@H](Cc1ccccc1)NC(=O)[C@H](Cc1ccccc1)NC(=O)[C@H](CCC(N)=O)NC(=O)[C@H](CCC(N)=O)NC(=O)[C@@H]1CCCN1C(=O)[C@H](CCCCN)NC(=O)[C@@H]1CCCN1C(=O)[C@@H](N)CCCN=C(N)N)C(N)=O [SP],~0.03 nM,–
"C[C@@H](NC(=O)[C@@H](N)Cc1ccc(O)cc1)C(=O)NCC(=O)N(C)[C@@H](Cc1ccccc1)C(=O)NCCO [DAMGO, Tyr-(D)Ala-Gly-Phe-NHCH2CH2OH]",–,~3 nM
